Columns and labels:
SAS cells = experiment: CCK-8 proliferation assay, SAS; assay type: cell-based
Experimental: (§1) The OSCC cell lines CAL-27 (STCC12901P, Servicebio, Wuhan, China) and SAS (CC0706, Cellcook, Guangzhou, China) were cultured in Dulbecco Modified Eagle Medium F12 (DMEM/F12) (G4610-500ML, Servicebio, Wuhan, China) supplemented with 10% fetal bovine serum (FBS) (AB-FBS-DIA1050, ABW, Shanghai, China) and 100 U/mL penicillin-streptomycin-gentamicin solution (G4014-100ML, Servicebio, Wuhan, China). VERO cells were cultured in DMEM (G4524-500ML, Servicebio, Wuhan, China) supplemented with 10% FBS (AB-FBS-DIA1050, ABW, China) and 100 U/mL penicillin–streptomycin–gentamicin solution (G4014-100ML, Servicebio, Wuhan, China). […] were maintained at 37 °C in a humidified 5% CO2 incubator. For experiments, 1 × 10^6 cells were seeded per T-25 culture flask.
(§2) CAL-27, SAS, and VERO cells were seeded in 96-well plates at a density of 5000 cells per well. At specified time intervals, 10 μL of Cell Counting Kit-8 (CCK-8) reagent (K1018, Apexbio, Boston, MA, USA) was added to each well and incubated for 2 h. Absorbance at 450 nm was measured using a microplate reader (Infinite M200 Pro, Tecan Group, Männedorf, Switzerland).

CAL-27 cells = experiment: CCK-8 proliferation assay, CAL-27; assay type: cell-based
Experimental: as §1, §2

With `Cc1ccc(-c2cc(C(F)(F)F)nn2-c2ccc(S(N)(=O)=O)cc2)cc1` [CXB, celecoxib, reference compound] the “Selectivity Index SAS” value (SAS cells) was 4.22 and the “Selectivity Index CAL-27” value (CAL-27 cells) was 4.27.
